Source: patent US20040009534A1 (DYAX, published 2004)

By UniProt entry, the sequences of proteins in these tests, tags left out. Where a name states a change or a piece, a line headed by the entry shows the natural chain unless it says otherwise. Residues count along the entry.
UniProt P02768, 25-609: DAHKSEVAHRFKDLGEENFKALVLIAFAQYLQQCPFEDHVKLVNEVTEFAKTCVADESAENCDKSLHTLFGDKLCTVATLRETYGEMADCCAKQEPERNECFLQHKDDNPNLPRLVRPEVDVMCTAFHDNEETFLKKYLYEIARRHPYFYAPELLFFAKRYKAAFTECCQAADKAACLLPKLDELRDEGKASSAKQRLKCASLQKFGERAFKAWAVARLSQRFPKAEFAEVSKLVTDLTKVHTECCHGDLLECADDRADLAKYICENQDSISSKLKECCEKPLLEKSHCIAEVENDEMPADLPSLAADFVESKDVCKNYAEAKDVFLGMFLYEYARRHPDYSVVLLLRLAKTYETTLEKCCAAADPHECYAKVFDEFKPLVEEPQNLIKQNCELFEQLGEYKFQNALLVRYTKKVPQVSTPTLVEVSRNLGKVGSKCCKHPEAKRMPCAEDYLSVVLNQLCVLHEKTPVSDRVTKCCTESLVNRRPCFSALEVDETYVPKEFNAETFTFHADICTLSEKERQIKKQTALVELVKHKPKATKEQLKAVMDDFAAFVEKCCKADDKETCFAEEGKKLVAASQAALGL
UniProt P02769, 25-607 limits assumed: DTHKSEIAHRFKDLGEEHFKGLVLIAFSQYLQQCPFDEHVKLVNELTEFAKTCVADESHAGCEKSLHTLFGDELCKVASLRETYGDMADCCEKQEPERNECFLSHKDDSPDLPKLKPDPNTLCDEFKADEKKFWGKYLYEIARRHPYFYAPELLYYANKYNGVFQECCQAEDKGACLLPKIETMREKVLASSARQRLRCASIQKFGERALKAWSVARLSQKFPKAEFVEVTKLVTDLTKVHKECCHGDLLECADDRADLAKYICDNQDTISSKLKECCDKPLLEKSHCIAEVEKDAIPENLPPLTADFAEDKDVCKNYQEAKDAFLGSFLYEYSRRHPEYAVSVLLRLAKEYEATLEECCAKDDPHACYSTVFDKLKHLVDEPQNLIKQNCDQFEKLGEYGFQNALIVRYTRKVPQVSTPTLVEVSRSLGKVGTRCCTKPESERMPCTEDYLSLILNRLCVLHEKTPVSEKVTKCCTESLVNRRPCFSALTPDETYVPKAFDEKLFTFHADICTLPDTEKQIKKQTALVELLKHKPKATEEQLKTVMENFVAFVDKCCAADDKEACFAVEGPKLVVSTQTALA
UniProt Q28522, 17-600 limits assumed: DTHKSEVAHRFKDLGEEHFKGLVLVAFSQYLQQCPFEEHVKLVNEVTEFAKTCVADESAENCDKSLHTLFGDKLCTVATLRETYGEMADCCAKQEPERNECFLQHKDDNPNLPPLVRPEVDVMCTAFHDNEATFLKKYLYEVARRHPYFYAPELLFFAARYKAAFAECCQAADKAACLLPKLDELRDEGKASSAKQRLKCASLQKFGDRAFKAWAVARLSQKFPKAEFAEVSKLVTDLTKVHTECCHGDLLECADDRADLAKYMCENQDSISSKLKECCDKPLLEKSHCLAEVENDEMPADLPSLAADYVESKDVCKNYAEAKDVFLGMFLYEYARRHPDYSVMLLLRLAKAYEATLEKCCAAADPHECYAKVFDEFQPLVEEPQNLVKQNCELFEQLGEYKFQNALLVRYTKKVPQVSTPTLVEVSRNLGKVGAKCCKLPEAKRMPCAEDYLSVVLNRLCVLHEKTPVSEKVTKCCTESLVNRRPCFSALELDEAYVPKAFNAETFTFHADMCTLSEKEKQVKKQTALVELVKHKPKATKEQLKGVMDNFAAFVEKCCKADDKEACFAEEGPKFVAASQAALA
UniProt P07724: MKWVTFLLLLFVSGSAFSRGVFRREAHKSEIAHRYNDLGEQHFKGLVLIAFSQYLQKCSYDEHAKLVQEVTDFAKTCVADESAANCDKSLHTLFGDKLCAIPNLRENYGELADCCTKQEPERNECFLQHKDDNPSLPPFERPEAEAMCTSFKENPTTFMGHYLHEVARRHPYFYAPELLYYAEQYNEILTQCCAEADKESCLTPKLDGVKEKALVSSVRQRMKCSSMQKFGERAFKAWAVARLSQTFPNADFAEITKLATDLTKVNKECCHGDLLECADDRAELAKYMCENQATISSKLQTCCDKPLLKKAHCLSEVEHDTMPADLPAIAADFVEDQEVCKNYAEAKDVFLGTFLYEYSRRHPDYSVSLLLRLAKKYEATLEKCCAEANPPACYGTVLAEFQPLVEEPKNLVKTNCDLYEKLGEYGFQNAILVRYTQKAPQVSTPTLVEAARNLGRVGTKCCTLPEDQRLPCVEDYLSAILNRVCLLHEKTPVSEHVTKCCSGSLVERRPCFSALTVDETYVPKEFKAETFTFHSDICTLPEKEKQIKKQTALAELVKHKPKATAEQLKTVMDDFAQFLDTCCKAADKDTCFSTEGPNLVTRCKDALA
UniProt P02770, 25-608 limits assumed: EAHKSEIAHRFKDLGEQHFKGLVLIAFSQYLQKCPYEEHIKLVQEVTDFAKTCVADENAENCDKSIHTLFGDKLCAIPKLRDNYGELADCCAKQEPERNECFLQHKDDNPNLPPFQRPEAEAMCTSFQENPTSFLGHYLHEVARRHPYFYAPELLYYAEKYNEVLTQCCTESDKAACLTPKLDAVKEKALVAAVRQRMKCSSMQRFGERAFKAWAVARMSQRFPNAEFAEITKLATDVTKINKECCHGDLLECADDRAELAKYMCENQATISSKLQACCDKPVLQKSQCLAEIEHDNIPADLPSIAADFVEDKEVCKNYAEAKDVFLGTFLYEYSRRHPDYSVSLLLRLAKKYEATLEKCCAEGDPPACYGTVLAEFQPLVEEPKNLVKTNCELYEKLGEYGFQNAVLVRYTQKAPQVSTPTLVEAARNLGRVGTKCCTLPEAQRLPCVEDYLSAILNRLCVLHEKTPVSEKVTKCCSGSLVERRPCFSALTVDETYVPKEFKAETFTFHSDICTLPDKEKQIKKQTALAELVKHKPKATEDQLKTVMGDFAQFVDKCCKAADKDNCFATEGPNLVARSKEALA
UniProt P08835, 25-607 limits assumed: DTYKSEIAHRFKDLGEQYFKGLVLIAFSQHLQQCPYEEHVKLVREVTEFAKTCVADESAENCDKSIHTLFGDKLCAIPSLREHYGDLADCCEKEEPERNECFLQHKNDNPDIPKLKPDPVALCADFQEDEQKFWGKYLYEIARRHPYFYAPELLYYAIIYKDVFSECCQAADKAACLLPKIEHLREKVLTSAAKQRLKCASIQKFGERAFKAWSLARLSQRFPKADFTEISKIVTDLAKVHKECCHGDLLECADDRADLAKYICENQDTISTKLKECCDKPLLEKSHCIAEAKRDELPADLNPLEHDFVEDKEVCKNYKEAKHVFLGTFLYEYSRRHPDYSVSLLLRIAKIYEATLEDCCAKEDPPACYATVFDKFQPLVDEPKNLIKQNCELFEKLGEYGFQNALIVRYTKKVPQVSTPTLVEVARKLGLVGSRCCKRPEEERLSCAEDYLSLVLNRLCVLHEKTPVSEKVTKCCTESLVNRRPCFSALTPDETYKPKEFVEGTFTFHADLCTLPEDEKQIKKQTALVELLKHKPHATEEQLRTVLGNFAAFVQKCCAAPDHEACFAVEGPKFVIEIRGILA
UniProt P49065, 25-608 limits assumed: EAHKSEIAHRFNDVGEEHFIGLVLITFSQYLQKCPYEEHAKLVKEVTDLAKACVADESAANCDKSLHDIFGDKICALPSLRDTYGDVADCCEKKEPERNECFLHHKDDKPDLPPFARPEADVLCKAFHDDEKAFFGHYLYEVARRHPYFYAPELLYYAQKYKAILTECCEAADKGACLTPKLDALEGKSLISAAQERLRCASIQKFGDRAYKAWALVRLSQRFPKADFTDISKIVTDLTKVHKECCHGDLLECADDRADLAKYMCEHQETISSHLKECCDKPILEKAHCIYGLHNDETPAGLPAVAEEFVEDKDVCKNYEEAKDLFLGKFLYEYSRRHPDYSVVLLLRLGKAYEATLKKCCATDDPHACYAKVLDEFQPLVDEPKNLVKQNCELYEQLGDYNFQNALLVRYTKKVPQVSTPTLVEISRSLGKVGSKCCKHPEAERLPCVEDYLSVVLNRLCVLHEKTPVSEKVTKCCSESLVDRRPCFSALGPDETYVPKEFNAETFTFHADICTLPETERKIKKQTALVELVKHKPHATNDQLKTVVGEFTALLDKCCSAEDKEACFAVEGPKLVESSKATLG

Legend:
human serum albumin [1] = molecular target: T1, human serum albumin (human, UniProt P02768 25-609); experiment: labeled peptide, KD; 3 mM phosphate, pH 6.2, 0 M NaCl
T1 construct: also called HSA

bovine serum albumin [2] = molecular target: T2, bovine serum albumin (Bovine, UniProt P02769 25-607); experiment: as above
T2 construct: also called BSA

Rhesus serum albumin [3] = molecular target: T3, Rhesus serum albumin (Rhesus, UniProt Q28522 17-600); experiment: as above
murine serum albumin [4] = molecular target: T4, murine serum albumin (Mouse, UniProt P07724 25-608); experiment: as above
T4 construct: also called MSA; mouse serum albumin

rat serum albumin [5] = molecular target: T5, rat serum albumin (Rat, UniProt P02770 25-608); experiment: as above
human serum albumin [6] = molecular target: T1, human serum albumin; experiment: labeled peptide, KD; PBS, pH 7.4, 0.14 M NaCl
bovine serum albumin [7] = molecular target: T2, bovine serum albumin; experiment: labeled peptide, KD; PBS, pH 7.4, 0.14 M NaCl
Rhesus serum albumin [8] = molecular target: T3, Rhesus serum albumin; experiment: labeled peptide, KD; PBS, pH 7.4, 0.14 M NaCl
pig serum albumin = pig serum albumin (Pig, UniProt P08835 25-607); experiment: labeled peptide, KD; PBS, pH 7.4, 0.14 M NaCl
rabbit serum albumin [9] = molecular target: T6, rabbit serum albumin (Rabbit, UniProt P49065 25-608); experiment: labeled peptide, KD; PBS, pH 7.4, 0.14 M NaCl
murine serum albumin [10] = molecular target: T4, murine serum albumin; experiment: labeled peptide, KD; PBS, pH 7.4, 0.14 M NaCl
rat serum albumin [11] = molecular target: T5, rat serum albumin; experiment: labeled peptide, KD; PBS, pH 7.4, 0.14 M NaCl
rabbit serum albumin [12] = molecular target: T6, rabbit serum albumin; experiment: labeled peptide, KD; 3 mM phosphate, pH 6.2, 0 M NaCl; labeled peptide in solution; 3 mM phosphate, pH 6.2, 0 M NaCl

B1: DX-236 (peptide)
peptide: AEGTGDFWFCDRIAWYPQHLCEFLDPEGGGK
modifications: labeled (label not named in Example 4) for the KD determinations; coupled via a C-terminal lysine to NHS-Sepharose for the column tests
notes: Cyclic (disulfide) phage-display peptide
Kd (human serum albumin [1]): 1900 nM
Kd (bovine serum albumin [2]): 1100 nM
Kd (Rhesus serum albumin [3]): 1100 nM
Kd (murine serum albumin [4]): 5.5 µM
Kd (rat serum albumin [5]): 1600 nM
Kd (human serum albumin [6]): 11 µM
Kd (bovine serum albumin [7]): 13.3 µM
Kd (Rhesus serum albumin [8]): 23 µM
Kd (pig serum albumin): 12 µM
Kd (rabbit serum albumin [9]): 18 µM
Kd (murine serum albumin [10]): 32 µM
Kd (rat serum albumin [11]): 25 µM

B2: DX-321 (peptide)
peptide: AEGTGDRNMCKFSWIRSPAFCARADPE
modifications: labeled (label not named in Example 4) for the KD determinations; coupled via a C-terminal lysine to NHS-Sepharose for the column tests
Kd (rabbit serum albumin [12]): 32 µM
